The values below are quoted from earlier work in patent US11191762B2, “Alkyl substituted triazole compounds as agonists of the APJ Receptor” (priority 2016, dated 2021).

The conditions of this data set: cited from earlier work.

As to Apelin-13, the plasma half-life is given as less than 5 min.
